{"source": "patent US10959968B2", "about": "“Methods for treating c-Met-dependent cancers” (Board of Supervisors of Louisiana State University and …, priority 2016, dated 2021)", "target": "ABL1 (Homo sapiens, UniProt P00519)", "experiment": "SelectScreen Kinase Profiling", "format": "biochemical"}
{"smiles": "COc1cc(CCOC(=O)/C=C/c2cc(OC)c(O)c(OC)c2)ccc1O", "note": "[Compound 8, (E)-4-hydroxy-3-methoxyph-ethyl 3-(4-hydroxy-3,5-dimethoxyphenyl) acrylate]", "values": [{"measurement": "Mean inhibition at 10 μM of HVS (%)", "result": 69, "unit": "%"}]}
